# Test results taken from US20050282734A1 (priority 1998, published 2005).
# Read-outs that look alike come from different tables or passages of the source.
# Experiments:
# [1] = Stability (solubility) of HSA in aqueous ethanol solution (precipitate/turbidity); assay type: physicochemical; settings: HSA 100 mg/ml in saline
# Description: At high concentrations, ethanol causes the denaturation of most proteins. Without wishing to be bound by any particular theory, inventors thought that ethanol can reduce water availability to below the level at which proteins remain functionally and structurally stable. […] This experiment had one objective: to determine the maximum working ethanol concentration that had minimal effect on the stability of HSA in aqueous ethanol solutions.
# Reagent Preparation • 1. A 10 ml stock solution of HSA (200 mg/ml aqueous solution) was prepared in a small vial and designated the 200 HSA stock solution. • 2. Three 20-ml saline stock solutions of 1×, 2× and 4× the normal NaCl concentration in physiological saline were also prepared in small bottles (or flasks) and designated the 1× Saline, 2× Saline and 4× Saline stock solutions, respectively.
# 1. Three sets of conical tubes were labeled as 1×, 2× and 4× corresponding to the 3 different saline stock solutions, respectively. • 2. 500 μL of 200 HSA stock was aliquoted into all 3 sets of tubes, and was preincubated at room temperature. • 3. Different amounts of appropriate saline stock solution were added to each set of tubes according to the Table 2. • 4. Ethanol was added to each set of 5 tubes to give final concentrations of 5, 10, 15, 20 and 25%, and none to the control tube, according to the Table 2. • 5. The tubes were incubated at room temperatures and observed at 0 h, 1 h and 3 h for precipitate formation. The results were recorded by + or − turbidity formation.
# [2] = cited from earlier work
substance,measurement,setting,value
"HSA: human serum albumin, commercial 20% solution; carrier excipient",turbidity of HSA solutions containing 30% ethanol,[1],some increase in turbidity
same,ethanol concentration at which HSA solutions turned cloudy instantly,[1]; room temperature,≥ 35%
same,ethanol concentration at which clear HSA solutions were obtained,[1]; room temperature,up to 25 % (v/v)
same,pI,[2]; defatted HSA,5.3
same,pI,[2]; non-defatted HSA,4.7
